The target of this assay is human α1β2γ2 GABAA receptors (Homo sapiens, UniProt P14867+P18507+P47870). Put plainly: submaximal GABA currents in Ltk cells. In kind it is cell-based.

Chains of the proteins cited; added tags and fusions are not shown. Residues count along the entry.
UniProt P14867, 28-456: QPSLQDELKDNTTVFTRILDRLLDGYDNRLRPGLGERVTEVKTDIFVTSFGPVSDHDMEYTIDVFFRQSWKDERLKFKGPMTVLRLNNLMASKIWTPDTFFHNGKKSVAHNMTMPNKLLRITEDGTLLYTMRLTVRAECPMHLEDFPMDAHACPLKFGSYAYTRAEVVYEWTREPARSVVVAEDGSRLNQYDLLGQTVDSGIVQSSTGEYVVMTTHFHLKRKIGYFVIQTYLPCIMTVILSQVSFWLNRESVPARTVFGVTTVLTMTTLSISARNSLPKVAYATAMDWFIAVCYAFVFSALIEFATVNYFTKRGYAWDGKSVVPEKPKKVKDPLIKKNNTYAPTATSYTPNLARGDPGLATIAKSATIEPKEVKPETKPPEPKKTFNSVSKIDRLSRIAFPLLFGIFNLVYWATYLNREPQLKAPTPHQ
UniProt P18507, 40-475: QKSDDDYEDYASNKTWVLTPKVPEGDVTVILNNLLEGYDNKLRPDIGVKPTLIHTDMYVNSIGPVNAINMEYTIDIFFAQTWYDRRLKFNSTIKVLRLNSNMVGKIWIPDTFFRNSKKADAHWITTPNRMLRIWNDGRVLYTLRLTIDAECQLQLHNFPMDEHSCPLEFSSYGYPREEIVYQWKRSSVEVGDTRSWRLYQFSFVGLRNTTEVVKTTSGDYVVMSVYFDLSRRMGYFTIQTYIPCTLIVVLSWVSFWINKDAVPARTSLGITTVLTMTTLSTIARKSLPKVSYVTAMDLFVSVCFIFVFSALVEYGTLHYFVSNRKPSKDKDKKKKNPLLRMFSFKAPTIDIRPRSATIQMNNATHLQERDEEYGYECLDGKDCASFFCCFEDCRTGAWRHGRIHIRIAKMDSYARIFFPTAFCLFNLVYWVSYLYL
UniProt P47870, 25-512 limits assumed: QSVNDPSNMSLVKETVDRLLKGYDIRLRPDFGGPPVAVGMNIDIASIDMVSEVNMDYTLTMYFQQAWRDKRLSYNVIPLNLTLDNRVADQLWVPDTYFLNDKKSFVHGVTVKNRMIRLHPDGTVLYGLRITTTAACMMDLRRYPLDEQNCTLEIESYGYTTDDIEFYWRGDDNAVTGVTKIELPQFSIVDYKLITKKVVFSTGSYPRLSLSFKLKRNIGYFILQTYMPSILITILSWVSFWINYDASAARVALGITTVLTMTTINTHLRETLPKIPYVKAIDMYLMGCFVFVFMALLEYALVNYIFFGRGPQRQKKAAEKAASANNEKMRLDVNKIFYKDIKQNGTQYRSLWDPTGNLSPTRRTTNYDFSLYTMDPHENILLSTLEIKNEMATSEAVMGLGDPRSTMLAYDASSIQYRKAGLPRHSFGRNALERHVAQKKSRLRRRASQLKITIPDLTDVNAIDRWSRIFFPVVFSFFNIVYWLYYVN

Broadly, the IC50 is the concentration at which inhibition is half-maximal. A higher IC50 goes with weaker potency. With `CN1CCc2cc3c(cc2[C@H]1[C@@H]1OC(=O)c2c1ccc1c2OCO1)OCO3` [Bicuculline], 265 nM corresponded to half-maximal inhibition (IC50). For the same molecule, the “GABA inward current stimulation, α1β2γ2, Mean ± SEM” value (0.1 μmol/L) is on record as 70.5 ± 3.2. Further, under “1 μmol/L”, the “GABA inward current stimulation, α1β2γ2, Mean ± SEM” value is 24.3 ± 1.7. Further, the “GABA inward current stimulation, α1β2γ2, Mean ± SEM” value (3 μmol/L) is 8.2 ± 1.0. Besides, under “30 μmol/L”, the “GABA inward current stimulation, α1β2γ2, Mean ± SEM” value is listed as 0.4 ± 0.5.
